For one molecule, IC50 results are on record in ChEMBL document CHEMBL4138130, “Effect of mofezolac-galactose distance in conjugates targeting cyclooxygenase (COX)-1 and CNS GLUT-1 carrier” (Eur J Med Chem, 2017).

Sequences of proteins named here, by UniProt entry; tags and fusion partners are left off.
UniProt P23219, whole entry: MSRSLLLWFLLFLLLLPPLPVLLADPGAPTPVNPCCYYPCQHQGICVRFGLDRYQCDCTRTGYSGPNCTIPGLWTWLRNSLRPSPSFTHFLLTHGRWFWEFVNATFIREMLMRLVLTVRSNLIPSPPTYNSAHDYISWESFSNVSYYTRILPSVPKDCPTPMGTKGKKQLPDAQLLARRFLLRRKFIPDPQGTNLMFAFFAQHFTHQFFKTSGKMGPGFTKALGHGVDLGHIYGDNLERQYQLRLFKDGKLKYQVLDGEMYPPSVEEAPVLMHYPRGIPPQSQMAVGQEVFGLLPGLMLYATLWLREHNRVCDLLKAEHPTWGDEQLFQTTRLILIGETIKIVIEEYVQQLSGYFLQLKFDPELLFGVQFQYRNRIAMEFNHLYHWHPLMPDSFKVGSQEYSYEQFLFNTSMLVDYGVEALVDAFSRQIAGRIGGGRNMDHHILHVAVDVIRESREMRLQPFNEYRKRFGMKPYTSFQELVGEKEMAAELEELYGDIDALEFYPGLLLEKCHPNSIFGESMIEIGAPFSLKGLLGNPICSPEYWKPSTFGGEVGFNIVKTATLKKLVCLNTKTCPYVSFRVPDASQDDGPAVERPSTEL

For the test, the target named is Prostaglandin G/H synthase 1 (Homo sapiens, UniProt P23219). Kind of test: Inhibition of human COX1 assessed as reduction in appearance of oxidized TMPD using arachidonic acid as substrate by colorimetric assay.

SMILES strings stand for the structures.

What is called IC50 is the concentration that gives 50% inhibition. In the case of `COc1ccc(-c2noc(CC(=O)O)c2-c2ccc(OC)cc2)cc1` [MOFEZOLAC], the IC50 came to 7.9 nM.
